The results in this text go back to BindingDB's records for 16621537.

The chains behind the UniProt entries cited, without tags or fusion partners. Where a name states a change or a piece, a line headed by the entry shows the natural chain unless it says otherwise.
UniProt P43166: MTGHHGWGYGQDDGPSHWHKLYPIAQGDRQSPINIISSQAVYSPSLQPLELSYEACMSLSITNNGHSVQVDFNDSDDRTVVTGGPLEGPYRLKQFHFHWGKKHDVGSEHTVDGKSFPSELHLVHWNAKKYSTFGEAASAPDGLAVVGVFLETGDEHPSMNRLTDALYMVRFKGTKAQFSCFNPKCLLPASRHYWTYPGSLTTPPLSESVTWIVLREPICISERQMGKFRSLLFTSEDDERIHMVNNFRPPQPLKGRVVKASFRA

For this assay, the target named is Carbonic anhydrase 7 (Homo sapiens, UniProt P43166).

A word on the Ki: it is a measure of affinity in units of concentration, obtained from inhibition or displacement. Read a high Ki as weaker binding. In the case of `[N-]=[N+]=[N-]`, the Ki was determined as 1.41 mM.
